Assay results as given in publication doi:10.1101/2020.04.21.032086.
Several values for one entry are separate records, joined by “and”; a condition that tells them apart may be missing. Equal entries are not always repeated.

The chains behind the UniProt entries cited, without tags or fusion partners. Where a name states a change or a piece, a line headed by the entry shows the natural chain unless it says otherwise. Residues count along the entry.
UniProt P61073: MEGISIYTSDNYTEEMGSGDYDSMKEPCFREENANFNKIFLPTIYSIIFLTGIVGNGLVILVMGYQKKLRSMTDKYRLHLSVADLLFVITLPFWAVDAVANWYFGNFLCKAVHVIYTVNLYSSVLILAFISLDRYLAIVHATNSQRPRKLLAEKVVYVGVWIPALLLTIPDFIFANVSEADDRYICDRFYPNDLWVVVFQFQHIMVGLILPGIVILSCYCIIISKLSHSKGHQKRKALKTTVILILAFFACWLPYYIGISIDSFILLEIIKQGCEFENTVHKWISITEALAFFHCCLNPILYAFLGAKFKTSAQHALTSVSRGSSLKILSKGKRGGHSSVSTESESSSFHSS
UniProt P48061, 22-89: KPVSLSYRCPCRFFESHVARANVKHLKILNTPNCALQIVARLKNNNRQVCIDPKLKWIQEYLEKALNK

How the values were obtained:
[1] = target: LgBiT-tagged human CXCR4 receptor (UniProt P61073); experiment: FRET or BRET
[2] = target: LgBiT-tagged human CXCR4 receptor (UniProt P61073); experiment: split reporter

koff [1]	pKD [1]	pIC50 [2]	Substance
0.00533 s⁻¹ and 0.007 s⁻¹	7.8		fluorescently-labelled CXCL12 (CXCL12-AF647) (from UniProt P48061-2 22-89) (ligand)
		8.82	CXCL12 (from UniProt P48061-2 22-89) (ligand)
